{"source": "patent US20190144917", "system": "C1-NPs: fluorescein-conjugated MMP substrate peptide C1 (FAM-sk-PLGLEEA-GC) coupled to iron oxide nanoparticles"}
{"substance": "recombinant MMP13", "values": [{"measurement": "catalytic efficiency (Michaelis-Menten fit)", "value": "catalytic efficiencies>10^3 M^-1 s^-1 and 10^4 M^-1 s^-1, respectively"}]}
